Test results: ChEMBL document CHEMBL1157141, “Prediction of intestinal absorption and metabolism of pharmacologically active flavones and flavanones” (Bioorg Med Chem, 2008)

Experiment: Stability in hank's balanced salt solution at 15 uM after 20 mins
Format: physicochemical
Details: read-out: Stability

## O=C1C[C@@H](c2ccc(O)cc2)Oc2cc(O)cc(O)c21 [NARINGENIN]
  remaining at 20 min, 15 µM: 102%
